Source: ChEMBL document CHEMBL4371086, “An irreversible inhibitor of peptidyl-prolyl cis/trans isomerase Pin1 and evaluation of cytotoxicity” (Bioorg Med Chem Lett, 2019)

Sequences of proteins named here, by UniProt entry; tags and fusion partners are left off.
UniProt Q13526, whole entry: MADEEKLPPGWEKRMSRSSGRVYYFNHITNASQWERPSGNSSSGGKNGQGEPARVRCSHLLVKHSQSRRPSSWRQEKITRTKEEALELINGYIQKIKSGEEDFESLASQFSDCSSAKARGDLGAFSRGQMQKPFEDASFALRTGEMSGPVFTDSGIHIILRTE

Target: Peptidyl-prolyl cis-trans isomerase NIMA-interacting 1 (Homo sapiens, UniProt Q13526)

SMILES	Kinact
O=C(/C=C/c1ccc2ccccc2c1)N[C@H](CCC(=O)N1CCOCC1)C(=O)O	9.41 ×10⁻⁸ /s
O=C(/C=C/c1ccc2ccccc2c1)N[C@@H](CCC(=O)N1CCOCC1)C(=O)O	3.42 ×10⁻⁷ /s
